Data taken from paper PMC10716148 (Scientific Reports, 2023).

Tested on: B16F10 melanoma cells
Assay: Cytotoxicity assay (MTT) in B16F10 cells
Assay type: cell-based, Murine
Conditions: 72 h
Method: Murine melanoma B16F10 cells (obtained from DS Pharma Biomedical, Japan) were cultivated in Dulbecco's Modified Eagle Medium (DMEM), a liquid medium supplemented with 10% fetal bovine serum (FBS) and 1% penicillin/streptomycin. The cells were incubated at a temperature of 37 °C within a controlled humidified environment containing 5% CO2. To facilitate subculture, the cells were detached from the culture flask using trypsin solution. Subsequently, the cells were subjected to staining with trypan blue solution and quantified using a hemocytometer for further analysis. The final concentration of DMSO was 0.1% for all experiments.
Cytotoxicity was assessed through the utilization of the MTT assay. The cell culture was initiated in 24-well plates, with a seeding density of 5 × 10^4 cells per well. After treatment with samples for 72 h, 10 µL of MTT solution (5 mg/mL in PBS) were added to each well and incubated for additional 3 h. Then, supernatant was removed and DMSO (250 µL) was added to dissolve the formed formazan crystals. The absorbance was measured at 570 nm using a microplate reader. Cells treated solely with DMSO served as the control. All experiments were conducted in triplicate. The percentage of cell viability was determined using the following calculation: %Cellviability=Abstreated cells-Absblank of treated cells/Abscontrol-Absblank of control×100

Substance: Quercetin-3-O-rhamnoside [Compound 1]
- Cytotoxicity: > 200 µM
